# Paper PMC7723054
# This is one part of the list.
# T1: LIN28A (human?, UniProt Q9H9Z2 1-209)
# T1 sequence: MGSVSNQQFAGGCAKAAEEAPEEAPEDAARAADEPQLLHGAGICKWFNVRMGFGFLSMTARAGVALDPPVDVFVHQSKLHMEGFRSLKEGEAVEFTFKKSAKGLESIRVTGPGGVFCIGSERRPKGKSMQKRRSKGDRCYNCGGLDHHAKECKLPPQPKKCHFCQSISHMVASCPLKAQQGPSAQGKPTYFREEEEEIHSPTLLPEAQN
# T2: CIRBP (Homo sapiens, UniProt Q14011 1-172)
# T2 sequence: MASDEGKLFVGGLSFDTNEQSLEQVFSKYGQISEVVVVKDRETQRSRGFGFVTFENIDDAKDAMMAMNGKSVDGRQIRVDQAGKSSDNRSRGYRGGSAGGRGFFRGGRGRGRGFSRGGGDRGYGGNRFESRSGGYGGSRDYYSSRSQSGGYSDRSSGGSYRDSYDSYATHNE
# T3: DHX36 (Homo sapiens, UniProt Q9H2U1 1-1008)
# T3 sequence: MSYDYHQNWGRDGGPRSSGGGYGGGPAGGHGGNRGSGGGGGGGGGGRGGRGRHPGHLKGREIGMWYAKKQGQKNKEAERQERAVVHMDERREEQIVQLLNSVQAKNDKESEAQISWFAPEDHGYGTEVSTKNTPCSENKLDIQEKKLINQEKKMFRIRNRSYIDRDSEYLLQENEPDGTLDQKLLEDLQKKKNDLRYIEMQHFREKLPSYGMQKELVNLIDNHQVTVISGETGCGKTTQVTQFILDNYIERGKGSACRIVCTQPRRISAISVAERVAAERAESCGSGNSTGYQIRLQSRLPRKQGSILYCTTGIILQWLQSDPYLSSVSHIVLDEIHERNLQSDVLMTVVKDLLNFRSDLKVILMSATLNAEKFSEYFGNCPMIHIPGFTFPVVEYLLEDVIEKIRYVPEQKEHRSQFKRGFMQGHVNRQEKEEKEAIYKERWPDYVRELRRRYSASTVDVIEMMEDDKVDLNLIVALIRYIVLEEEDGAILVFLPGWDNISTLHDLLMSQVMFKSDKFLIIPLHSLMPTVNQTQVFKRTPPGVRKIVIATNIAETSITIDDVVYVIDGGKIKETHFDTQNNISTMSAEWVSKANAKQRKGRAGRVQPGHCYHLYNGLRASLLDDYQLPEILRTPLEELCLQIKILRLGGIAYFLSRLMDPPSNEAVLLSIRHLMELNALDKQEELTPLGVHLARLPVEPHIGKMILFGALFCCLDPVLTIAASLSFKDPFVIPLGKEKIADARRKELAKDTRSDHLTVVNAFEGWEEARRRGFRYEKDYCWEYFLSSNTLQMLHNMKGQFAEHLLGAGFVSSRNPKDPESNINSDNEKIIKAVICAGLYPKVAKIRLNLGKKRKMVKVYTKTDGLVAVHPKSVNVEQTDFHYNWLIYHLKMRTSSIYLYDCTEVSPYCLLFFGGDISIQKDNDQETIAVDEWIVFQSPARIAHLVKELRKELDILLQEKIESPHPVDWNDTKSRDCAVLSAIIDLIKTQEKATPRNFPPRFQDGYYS
# B1: hsa-mir-4634 (structured_RNA)
# RNA: GGGACACGUAGGCACGCACUGAAAUCACGGUGUACGAAGUUUCAGCGGGGCUCUUGCUGAAGCUUCGUGCAC
# B2: hsa-mir-5589 (structured_RNA)
# RNA: GGGACCACAACGUUCGAGAACCAAAAUCGGUGUACGAAGUUUCAGCUGCAGUGAGCAACCUACACAACUGCAGCUGAAGCUUCGUGCAC
# B3: hsa-mir-6834 (structured_RNA)
# RNA: GGGAAAGAGAAGGCAGUCUUUCAUAGAGGGUGUACGAAGUUUCAGCUUUGUGGGGCGAGGAGGGACCUGUACUAGCCAUGGUUCUGAUCACAUAUGGCUGAAGCUUCGUGCAC
# B4: hsa-mir-5579 (structured_RNA)
# RNA: GGGAAGUUCGAUCCAUUCGCGGGACGACGGUGUACGAAGUUUCAGCCUAACAGGCCCCUGUCACCAUUAGGCUGAAGCUUCGUGCAC
# B5: hsa-let-7a-2 (structured_RNA)
# RNA: GGGAAAACACGUCAGCGCAACAAGGUUUGGUGUACGAAGUUUCAGCAUAGUUUAGAAUUACAUCAAGGGAGAUAACUGUGCUGAAGCUUCGUGCAC
# B6: hsa-mir-1260a (structured_RNA)
# RNA: GGGAAAAGGUUCCGGCAGCACUCGAAUGGGUGUACGAAGUUUCAGCACCAAAACACUCAUCGCGGGCUGAAGCUUCGUGCAC
# B7: r(GAA)16: (structured_RNA)
# RNA: GGGAAAUCCGCUCAGCUGCCUUUACCGUGGUGUACGAAGUUUCAGCGAAGAAGAAGAAGAAGAAGAAGAAGAAGAAGAAGAAGAAGAAGAAGAAGCUGAAGCUUCGUGCAC
# B8: hsa-mir-325 (structured_RNA)
# RNA: GGGACCACUCCCUGGGACGUUAACAACGGGUGUACGAAGUUUCAGCGUGUUUGUGACAUAAUUUGUGCUGAAGCUUCGUGCAC
# B9: hsa-mir-378e (structured_RNA)
# RNA: GGGACAGCUGGUGUAAAGCGACAAUCACGGUGUACGAAGUUUCAGCCAGGCCAGGGGCAGACAGUGGACAGAGAACAGUGCCCAAGACCACUGGCUGAAGCUUCGUGCAC
# B10: hsa-mir-5186 (structured_RNA)
# RNA: GGGACGCAUAGUCAGUUGUGCUCUAAACGGUGUACGAAGUUUCAGCCUUUCCUCAGCUGAUUUCUUUCUGGGGAGAGGCUGAAGCUUCGUGCAC
# B11: hsa-mir-6130 (structured_RNA)
# RNA: GGGAACAACUCUCGCGACCUAAAGCACUGGUGUACGAAGUUUCAGCUAUAUACUGAUGUAAUUUUCCUUGGAUUUAUAUGCAGUACUGAGGCUGAAGCUUCGUGCAC
# Molecular target: U1A (Homo sapiens, UniProt P09012)
# Assay: FOREST: bead pull-down of RNA structure library v1, barcode microarray; U1A/LIN28A: 20 mM HEPES pH 7.5, 80 mM KCl, 20 mM NaCl, 10% glycerol, 2 mM DTT, 0.1 ug/uL BSA, 4 C; BG4/CIRBP/DHX36: 10 mM Tris-HCl pH 7.5, 100 mM KCl (or LiCl),; high values mean tight binding
row,Binder,binding signal
1,B1,1.38 z-score
2,B2,1.36 z-score
3,B3,1.37 z-score
4,B4,1.37 z-score
5,B5,1.35 z-score
6,B6,1.38 z-score
7,B7,2.7 z-score
8,B8,1.37 z-score
9,B9,1.38 z-score
10,B10,1.38 z-score
11,B11,1.39 z-score

# Molecular target: T1, LIN28A
# Assay: as above
row,Binder,binding signal
1,B1,-0.644 z-score
2,B2,0.184 z-score
3,B3,1.01 z-score
4,B4,-1.39 z-score
5,B5,1.96 z-score
6,B6,-0.346 z-score
7,B7,2.77 z-score
8,B8,0.252 z-score
9,B9,1.5 z-score
10,B10,0.00297 z-score
11,B11,-0.295 z-score

# Molecular target: T2, CIRBP
# Assay: as above
row,Binder,binding signal
1,B1,-0.977 z-score
2,B2,0.671 z-score
3,B3,1.89 z-score
4,B4,-0.618 z-score
5,B5,0.893 z-score
6,B6,-1.21 z-score
7,B7,10.7 z-score
8,B8,-1.24 z-score
9,B9,-0.296 z-score
10,B10,0.718 z-score
11,B11,0.546 z-score

# Molecular target: T3, DHX36
# Assay: as above
row,Binder,binding signal
1,B1,0.261 z-score
2,B2,-0.95 z-score
3,B3,2.76 z-score
4,B4,-0.291 z-score
5,B5,1.83 z-score
6,B6,-0.074 z-score
7,B7,2.93 z-score
8,B8,-0.633 z-score
9,B9,1.79 z-score
10,B10,0.554 z-score
11,B11,-0.476 z-score
